Results: ChEMBL document CHEMBL1140479, “NO donors. Part 16: investigations on structure-activity relationships of organic mononitrates reveal 2-nitrooxyethylammoniumnitrate as a high potent vasodilator” (Bioorg Med Chem Lett, 2007)

Assay: Vasodilatory effect in pig pulmonary artery assessed as inhibition of PGF2-alpha-induced contraction
Assay type: functional, tissue-based
Settings: Sus scrofa
Outline: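 Porcine lungs from slaughterhouse; small pulmonary artery branches cut into rings (2–3 mm long, 1.5–2 mm diameter), tension measured in organ baths. Rings precontracted with PGF2α; test compounds added cumulatively at contraction plateau (up to 1 mM), DMSO as solvent. Endothelium checked by 10 nM bradykinin relaxation; denuded rings by gentle rubbing, pretreated with 0.2 mM L-NAME. Potency expressed as pD2.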

Structure (SMILES): CC(C)O[N+](=O)[O-]
- pD2: 3.36
